For this experiment, the target named is T1, Progesterone receptor (Homo sapiens, UniProt P06401).
T1 sequence (P06401 whole entry): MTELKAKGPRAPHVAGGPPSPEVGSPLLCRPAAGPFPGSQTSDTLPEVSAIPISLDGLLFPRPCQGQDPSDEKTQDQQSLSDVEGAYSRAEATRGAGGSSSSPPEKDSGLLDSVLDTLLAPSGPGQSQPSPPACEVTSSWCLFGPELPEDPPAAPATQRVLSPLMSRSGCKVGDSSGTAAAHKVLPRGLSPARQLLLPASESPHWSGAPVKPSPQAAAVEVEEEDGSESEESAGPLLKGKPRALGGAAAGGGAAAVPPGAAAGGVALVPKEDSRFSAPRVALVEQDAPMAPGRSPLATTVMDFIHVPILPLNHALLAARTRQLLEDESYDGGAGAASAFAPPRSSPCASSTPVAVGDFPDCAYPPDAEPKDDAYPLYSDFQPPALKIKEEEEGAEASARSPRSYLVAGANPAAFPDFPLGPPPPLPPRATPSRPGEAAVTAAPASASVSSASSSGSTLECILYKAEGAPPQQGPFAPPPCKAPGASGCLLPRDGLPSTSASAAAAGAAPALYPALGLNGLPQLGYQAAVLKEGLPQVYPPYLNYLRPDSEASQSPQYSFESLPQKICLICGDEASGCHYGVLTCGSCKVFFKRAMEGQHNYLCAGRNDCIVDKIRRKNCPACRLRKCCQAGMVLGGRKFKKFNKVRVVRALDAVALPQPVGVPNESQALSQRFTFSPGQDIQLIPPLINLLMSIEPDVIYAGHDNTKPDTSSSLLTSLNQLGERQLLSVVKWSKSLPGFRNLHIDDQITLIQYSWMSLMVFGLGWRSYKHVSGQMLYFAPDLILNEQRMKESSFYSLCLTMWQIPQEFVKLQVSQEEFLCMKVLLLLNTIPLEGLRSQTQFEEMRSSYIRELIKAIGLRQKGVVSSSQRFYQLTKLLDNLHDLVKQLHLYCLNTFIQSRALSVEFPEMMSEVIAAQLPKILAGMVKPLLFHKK
In words: Binding Assay: Using cytosol from progesterone receptor-expressing insect cells (Hi5), competitive binding to the progesterone receptor was determined from the ability to displace 3H-progesterone as reference substance from the receptor.

The IC50 is the concentration that gives 50% inhibition. Read a high IC50 as lower potency.

Structures are written as SMILES.

The compound `CC[C@]12CC[C@H]3[C@@H](CC4(CC4)C4=CC(=O)CC[C@@H]43)[C@@H]1CC[C@@]21C=CC(=O)O1` returned an IC50 of 49 nM.
The result for `C[C@]12CC[C@H]3[C@@H](CC4(CC4)C4=CC(=O)CC[C@@H]43)[C@@H]1CC[C@@]21C=CC(=O)O1` reads 44 nM.

For the origin of these results see ChEMBL document CHEMBL3639292, “17-hydroxy-19-nor-21-carboxylic acid-steroid Œ=-lactone derivative, use thereof, and medicament containing the derivative” (2015).
